T1: single-stranded DNA-binding protein (SSB) of E. coli, wild-type (E. coli, UniProt P0AGE0 1-178)
T1 sequence: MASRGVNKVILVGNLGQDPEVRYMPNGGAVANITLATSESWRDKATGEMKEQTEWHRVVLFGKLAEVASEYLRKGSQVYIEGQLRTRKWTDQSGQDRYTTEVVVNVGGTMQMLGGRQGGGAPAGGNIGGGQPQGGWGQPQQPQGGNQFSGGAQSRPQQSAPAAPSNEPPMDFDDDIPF

B1: χ subunit of DNA polymerase III of E. coli, wild-type (natural protein)
chain: MKNATFYLLDNDTTVDGLSAVEQLVCEIAAERWRSGKRVLIACEDEKQAYRLDEALWARPAESFVPHNLAGEGPRGGAPVEIAWPQKRSSSRRDILISLRTSFADFATAFTEVVDFVPYEDSLKQLARERYKAYRVAGFNLNTATWK
B2: χ K124A (natural protein)
chain: MKNATFYLLDNDTTVDGLSAVEQLVCEIAAERWRSGKRVLIACEDEKQAYRLDEALWARPAESFVPHNLAGEGPRGGAPVEIAWPQKRSSSRRDILISLRTSFADFATAFTEVVDFVPYEDSLAQLARERYKAYRVAGFNLNTATWK
B3: χ K124M (natural protein)
chain: MKNATFYLLDNDTTVDGLSAVEQLVCEIAAERWRSGKRVLIACEDEKQAYRLDEALWARPAESFVPHNLAGEGPRGGAPVEIAWPQKRSSSRRDILISLRTSFADFATAFTEVVDFVPYEDSLMQLARERYKAYRVAGFNLNTATWK
B4: χ K132A (natural protein)
chain: MKNATFYLLDNDTTVDGLSAVEQLVCEIAAERWRSGKRVLIACEDEKQAYRLDEALWARPAESFVPHNLAGEGPRGGAPVEIAWPQKRSSSRRDILISLRTSFADFATAFTEVVDFVPYEDSLKQLARERYAAYRVAGFNLNTATWK
B5: χ K132M (natural protein)
chain: MKNATFYLLDNDTTVDGLSAVEQLVCEIAAERWRSGKRVLIACEDEKQAYRLDEALWARPAESFVPHNLAGEGPRGGAPVEIAWPQKRSSSRRDILISLRTSFADFATAFTEVVDFVPYEDSLKQLARERYMAYRVAGFNLNTATWK
B6: χ Y119A (natural protein)
chain: MKNATFYLLDNDTTVDGLSAVEQLVCEIAAERWRSGKRVLIACEDEKQAYRLDEALWARPAESFVPHNLAGEGPRGGAPVEIAWPQKRSSSRRDILISLRTSFADFATAFTEVVDFVPAEDSLKQLARERYKAYRVAGFNLNTATWK
B7: χ Y131A (natural protein)
chain: MKNATFYLLDNDTTVDGLSAVEQLVCEIAAERWRSGKRVLIACEDEKQAYRLDEALWARPAESFVPHNLAGEGPRGGAPVEIAWPQKRSSSRRDILISLRTSFADFATAFTEVVDFVPYEDSLKQLARERAKAYRVAGFNLNTATWK

What follows are binders tested against T1, single-stranded DNA-binding protein … (assay: AUC).

Question: Which Ka does the source give for B1 here?
Answer: 290000 M⁻¹

Question: For B2, which Ka is on record?
Answer: 21000 M⁻¹

Question: How did the Ka turn out when B3 was run?
Answer: 60000 M⁻¹

Question: With B4 as the binder, how does the Ka read?
Answer: 90000 M⁻¹

Question: Which Ka does the source give for B5 here?
Answer: 210000 M⁻¹

Question: Which Ka does the source give for B6 here?
Answer: 340000 M⁻¹

Question: B7 was tested. Which Ka did it give?
Answer: 48000 M⁻¹

Source: article PMC3045619 (Nucleic Acids Research, 2010)
